Publication PMC7471466 (Acta Pharmacologica Sinica, 2020)

How the values were obtained:
AOX1 mRNA [1] = conditions: rat livers, 20, 50, 100 mg·kg−1·d−1 NIM for 5 days
[2] = tested on: sandwich-cultured rat hepatocytes; conditions: after NIM treatment
AOX1 mRNA [3] = conditions: human hepatocytes, 0–100 μM NIM for 24 h
AOX1 = conditions: human hepatocytes, 0–100 μM NIM for 24 h, concentration-dependent

- biliary excretion index (BEI) of MTX [2]: not changed
SMILES: CS(=O)(=O)Nc1ccc([N+](=O)[O-])cc1Oc1ccccc1 [NIM, nimesulide]
- AOX1 mRNA level (AOX1 mRNA [1]): no significant alteration
- increase in AOX1 mRNA levels (AOX1 mRNA [3]): < 1.5 fold
- AOX1 protein level (AOX1): increased
